From publication PMC3676400, “3-Oxoacyl-ACP Reductase from Schistosoma japonicum: Integrated In Silico-In Vitro Strategy for Discovering Antischistosomal Lead Compounds” (PLoS ONE, 2013)

Tested on: NADPH
Assay: purified protein, by the assay type
Conditions: other: S. japonicum; pH 6.8; 37.0 °C

rSjOAR (Schistosoma japonicum)
Km: 93.6 ± 4.2 µM
